Laboratory results reported in ChEMBL document CHEMBL5034025 (Eur J Med Chem, 2021).

Sequences of proteins named here, by UniProt entry; tags and fusion partners are left off. Residues count along the entry.
UniProt Q9CYK2, 36-362 limits assumed: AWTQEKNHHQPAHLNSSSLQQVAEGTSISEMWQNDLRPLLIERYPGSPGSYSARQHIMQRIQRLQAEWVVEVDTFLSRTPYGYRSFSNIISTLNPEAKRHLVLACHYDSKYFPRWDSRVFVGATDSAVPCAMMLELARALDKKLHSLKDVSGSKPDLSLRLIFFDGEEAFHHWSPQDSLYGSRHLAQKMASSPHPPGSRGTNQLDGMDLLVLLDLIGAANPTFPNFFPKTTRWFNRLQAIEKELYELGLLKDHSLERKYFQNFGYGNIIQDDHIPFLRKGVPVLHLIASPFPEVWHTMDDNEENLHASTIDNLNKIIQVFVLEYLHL
UniProt P08684, 2-503 limits assumed: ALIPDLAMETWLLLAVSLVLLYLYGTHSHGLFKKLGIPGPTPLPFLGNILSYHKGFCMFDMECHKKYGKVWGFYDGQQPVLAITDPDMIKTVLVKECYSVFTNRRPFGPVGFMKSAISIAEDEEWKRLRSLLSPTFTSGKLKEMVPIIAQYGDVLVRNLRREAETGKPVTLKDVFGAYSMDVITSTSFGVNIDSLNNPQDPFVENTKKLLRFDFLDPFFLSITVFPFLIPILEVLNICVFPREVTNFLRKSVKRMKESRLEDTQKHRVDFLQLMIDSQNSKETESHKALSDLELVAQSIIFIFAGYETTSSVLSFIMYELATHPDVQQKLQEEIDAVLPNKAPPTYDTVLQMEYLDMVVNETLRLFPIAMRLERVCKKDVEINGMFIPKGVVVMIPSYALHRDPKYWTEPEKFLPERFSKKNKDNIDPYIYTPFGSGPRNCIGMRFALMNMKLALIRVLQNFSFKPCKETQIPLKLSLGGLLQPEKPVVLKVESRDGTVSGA
UniProt P10635, whole entry: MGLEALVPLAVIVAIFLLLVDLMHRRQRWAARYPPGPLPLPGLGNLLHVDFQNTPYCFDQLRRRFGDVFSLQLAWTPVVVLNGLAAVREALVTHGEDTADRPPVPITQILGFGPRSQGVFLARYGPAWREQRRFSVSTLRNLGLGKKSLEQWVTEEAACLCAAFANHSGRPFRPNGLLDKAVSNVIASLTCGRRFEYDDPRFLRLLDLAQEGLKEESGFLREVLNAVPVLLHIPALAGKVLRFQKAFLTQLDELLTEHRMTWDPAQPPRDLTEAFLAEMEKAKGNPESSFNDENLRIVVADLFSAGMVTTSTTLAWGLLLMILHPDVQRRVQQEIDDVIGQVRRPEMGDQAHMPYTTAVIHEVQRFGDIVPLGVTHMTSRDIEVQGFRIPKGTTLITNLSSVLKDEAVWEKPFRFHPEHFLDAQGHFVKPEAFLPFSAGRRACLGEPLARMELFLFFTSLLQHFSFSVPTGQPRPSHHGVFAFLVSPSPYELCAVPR
UniProt P11712, whole entry: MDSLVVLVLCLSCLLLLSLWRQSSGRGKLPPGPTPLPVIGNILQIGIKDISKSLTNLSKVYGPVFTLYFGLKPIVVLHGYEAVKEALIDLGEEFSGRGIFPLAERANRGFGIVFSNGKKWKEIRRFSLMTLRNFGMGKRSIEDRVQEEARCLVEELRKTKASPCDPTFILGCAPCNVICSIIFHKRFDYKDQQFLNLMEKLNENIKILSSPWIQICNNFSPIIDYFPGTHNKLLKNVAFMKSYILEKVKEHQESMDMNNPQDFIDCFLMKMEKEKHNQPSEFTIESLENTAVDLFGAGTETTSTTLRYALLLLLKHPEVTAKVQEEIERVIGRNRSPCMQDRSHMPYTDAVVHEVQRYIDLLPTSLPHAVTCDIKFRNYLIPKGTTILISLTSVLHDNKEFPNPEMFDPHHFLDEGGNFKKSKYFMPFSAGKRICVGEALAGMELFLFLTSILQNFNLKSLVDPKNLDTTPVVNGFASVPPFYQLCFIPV
UniProt P05177, 2-516 limits assumed: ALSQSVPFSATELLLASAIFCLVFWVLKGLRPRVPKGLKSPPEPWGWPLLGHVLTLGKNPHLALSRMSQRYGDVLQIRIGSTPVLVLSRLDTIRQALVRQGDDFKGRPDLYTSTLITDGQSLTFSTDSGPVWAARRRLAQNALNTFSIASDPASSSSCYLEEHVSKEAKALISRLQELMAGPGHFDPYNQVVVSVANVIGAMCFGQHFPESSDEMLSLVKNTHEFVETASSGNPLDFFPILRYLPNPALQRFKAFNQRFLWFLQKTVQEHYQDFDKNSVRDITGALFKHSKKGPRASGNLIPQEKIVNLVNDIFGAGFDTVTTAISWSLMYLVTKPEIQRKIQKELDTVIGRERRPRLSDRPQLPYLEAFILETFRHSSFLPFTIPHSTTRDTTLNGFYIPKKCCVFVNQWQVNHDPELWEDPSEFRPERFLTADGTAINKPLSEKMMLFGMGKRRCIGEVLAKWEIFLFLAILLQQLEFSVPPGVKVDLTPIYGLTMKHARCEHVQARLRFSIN
UniProt P33261, whole entry: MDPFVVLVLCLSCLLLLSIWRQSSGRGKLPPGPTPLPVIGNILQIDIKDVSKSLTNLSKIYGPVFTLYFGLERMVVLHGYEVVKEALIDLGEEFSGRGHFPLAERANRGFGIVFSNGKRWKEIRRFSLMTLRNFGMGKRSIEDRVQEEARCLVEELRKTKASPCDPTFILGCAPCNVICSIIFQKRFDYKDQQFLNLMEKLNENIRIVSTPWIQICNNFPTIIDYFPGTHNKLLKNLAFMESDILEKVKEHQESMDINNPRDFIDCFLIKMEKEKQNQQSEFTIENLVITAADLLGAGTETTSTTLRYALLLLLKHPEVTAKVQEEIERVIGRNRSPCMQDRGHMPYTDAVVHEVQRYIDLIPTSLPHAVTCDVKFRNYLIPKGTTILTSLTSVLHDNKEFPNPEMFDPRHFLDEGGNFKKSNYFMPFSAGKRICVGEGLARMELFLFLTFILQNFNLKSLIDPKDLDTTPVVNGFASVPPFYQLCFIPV
UniProt Q12809, whole entry: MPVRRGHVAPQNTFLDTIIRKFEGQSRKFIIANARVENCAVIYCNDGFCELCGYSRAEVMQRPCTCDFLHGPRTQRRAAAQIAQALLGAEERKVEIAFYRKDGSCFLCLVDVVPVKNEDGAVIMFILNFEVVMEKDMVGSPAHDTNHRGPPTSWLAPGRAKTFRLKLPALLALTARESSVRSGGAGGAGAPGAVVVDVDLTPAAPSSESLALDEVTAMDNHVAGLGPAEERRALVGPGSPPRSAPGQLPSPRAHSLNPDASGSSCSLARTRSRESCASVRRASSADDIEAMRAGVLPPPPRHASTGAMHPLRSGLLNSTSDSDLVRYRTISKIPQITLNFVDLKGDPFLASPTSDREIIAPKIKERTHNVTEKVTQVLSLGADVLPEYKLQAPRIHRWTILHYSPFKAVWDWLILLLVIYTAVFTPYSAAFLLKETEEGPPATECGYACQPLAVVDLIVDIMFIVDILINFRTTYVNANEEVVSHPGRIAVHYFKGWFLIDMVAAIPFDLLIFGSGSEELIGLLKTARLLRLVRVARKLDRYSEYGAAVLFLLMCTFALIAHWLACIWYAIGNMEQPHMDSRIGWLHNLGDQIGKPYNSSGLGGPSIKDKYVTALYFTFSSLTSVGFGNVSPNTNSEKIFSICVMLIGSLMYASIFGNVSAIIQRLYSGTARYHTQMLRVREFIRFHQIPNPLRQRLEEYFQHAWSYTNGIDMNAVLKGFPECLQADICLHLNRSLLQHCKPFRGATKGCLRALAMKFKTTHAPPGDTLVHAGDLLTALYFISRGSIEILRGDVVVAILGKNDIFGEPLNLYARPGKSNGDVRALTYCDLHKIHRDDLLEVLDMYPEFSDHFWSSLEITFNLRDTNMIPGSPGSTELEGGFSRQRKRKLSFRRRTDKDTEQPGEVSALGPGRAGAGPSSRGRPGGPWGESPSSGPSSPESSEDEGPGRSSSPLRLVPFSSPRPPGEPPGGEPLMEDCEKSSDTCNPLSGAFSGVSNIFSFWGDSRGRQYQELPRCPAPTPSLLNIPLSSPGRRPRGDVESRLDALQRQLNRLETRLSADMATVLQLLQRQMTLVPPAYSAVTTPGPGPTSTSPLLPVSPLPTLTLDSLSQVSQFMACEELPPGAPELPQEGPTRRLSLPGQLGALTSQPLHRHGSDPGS

What was measured:
[1] = target: Glutaminyl-peptide cyclotransferase (Mus musculus, UniProt Q9CYK2); test: Inhibition of mouse QPCT measured after 15 mins by fluorimetry
[2] = target: Cytochrome P450 3A4 (Homo sapiens, UniProt P08684); test: Inhibition of CYP3A4 (unknown origin) at 10 uM
[3] = Metabolic stability in human liver microsomes assessed as parent compound remaining measured after 30 mins; details: 0.5 h
[4] = target: Cytochrome P450 2D6 (Homo sapiens, UniProt P10635); test: Inhibition of CYP2D6 (unknown origin) at 10 uM
[5] = Metabolic stability in mouse liver microsomes assessed as parent compound remaining measured after 30 mins; details: 0.5 h
[6] = system: HT-22; test: Cytotoxicity against mouse HT22 cells assessed as cell viability at 10 uM incubated for 18 hrs by MTT assay; details: ht-22, 18 h
[7] = target: Cytochrome P450 2C9 (Homo sapiens, UniProt P11712); test: Inhibition of CYP2C9 (unknown origin) at 10 uM
[8] = target: Cytochrome P450 1A2 (Homo sapiens, UniProt P05177); test: Inhibition of CYP1A2 (unknown origin) at 10 uM
[9] = target: Cytochrome P450 2C19 (Homo sapiens, UniProt P33261); test: Inhibition of CYP2C19 (unknown origin) at 10 uM
[10] = target: Voltage-gated inwardly rectifying potassium channel KCNH2 (Homo sapiens, UniProt Q12809); test: Inhibition of human ERG at 10 uM by fluorescence polarization assay
[11] = system: Mus musculus; test: Antialzheimer activity in transgenic 5XFAD mouse model assessed as amyloid betaN3pE-40 levels in hippocampus at 10 mM administered every day for 4 weeks via brain infusion by ELISA
[12] = system: Mus musculus; test: Antialzheimer activity in transgenic 5XFAD mouse model assessed as amyloid beta42 levels in hippocampus at 10 mM administered every day for 4 weeks via brain infusion by ELISA
[13] = system: Mus musculus; test: Antialzheimer activity in transgenic 5XFAD mouse model assessed as amyloid betaN3pE-42 levels in hippocampus at 10 mM administered every day for 4 weeks via brain infusion by ELISA
[14] = system: Mus musculus; test: Antialzheimer activity in transgenic 5XFAD mouse model assessed as amyloid beta40 levels in hippocampus at 10 mM administered every day for 4 weeks via brain infusion by ELISA

| Structure (SMILES) | pIC50 [1] | inhibition (INH) [2] | Stability [3] | inhibition (INH) [4] | Stability [5] | Activity [6] | inhibition (INH) [7] | inhibition (INH) [8] | inhibition (INH) [9] | inhibition (INH) [10] | Activity [11] | Activity [12] | Activity [13] | Activity [14] |
| --- | --- | --- | --- | --- | --- | --- | --- | --- | --- | --- | --- | --- | --- | --- |
| COc1cc(N(C(=O)NCCCn2cncc2C)C2CCN(C)CC2)ccc1OCCc1ccnc(N)c1 | 8.12 | 50% | 73.2% | 95% | 60.9% | 100% | 17% | 0% | 6% | 9.2% | – | – | – | – |
| COc1cc(N(C(=O)NCc2ccc3[nH]cnc3c2)C2CCN(C)CC2)ccc1OCCCCc1ccnc(N)c1 | 7.22 | 48% | 97.7% | 61% | 92.1% | 100% | 11% | 0% | 24% | 3.5% | 32.6% | 30.5% | 21.3% | 37.5% |

pIC50: −log10 of the molar value. This is a selection: effects in other tests are not listed, and their absence says nothing.
